The values that follow come from publication PMC10508264, “Exploring the antioxidant, antimicrobial, cytotoxic and biothermodynamic properties of novel morpholine derivative bioactive Mn(II), Co(II) and Ni(II) complexes – combined experimental and theoretical measurements towards DNA/BSA/SARS-CoV-2 3CL^Pro” (RSC Medicinal Chemistry, 2023).

Amino acid sequences for entries named in this document (tags omitted). Residues count along the entry.
UniProt P02769, 25-607: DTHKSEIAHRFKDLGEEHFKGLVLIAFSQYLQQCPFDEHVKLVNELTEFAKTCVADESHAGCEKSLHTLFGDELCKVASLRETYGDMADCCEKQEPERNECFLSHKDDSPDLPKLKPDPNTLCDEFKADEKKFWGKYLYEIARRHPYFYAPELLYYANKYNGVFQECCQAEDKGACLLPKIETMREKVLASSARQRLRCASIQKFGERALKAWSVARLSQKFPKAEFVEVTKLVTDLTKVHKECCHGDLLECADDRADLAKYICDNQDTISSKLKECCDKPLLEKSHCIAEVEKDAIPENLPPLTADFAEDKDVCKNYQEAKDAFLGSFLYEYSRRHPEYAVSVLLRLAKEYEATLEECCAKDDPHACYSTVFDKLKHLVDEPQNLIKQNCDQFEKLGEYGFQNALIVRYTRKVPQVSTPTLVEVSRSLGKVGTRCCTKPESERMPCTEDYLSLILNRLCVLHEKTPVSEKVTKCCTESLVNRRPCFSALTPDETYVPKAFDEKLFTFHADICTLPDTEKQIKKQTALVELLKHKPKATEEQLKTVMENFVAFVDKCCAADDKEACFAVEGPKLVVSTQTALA

This assay has as its target BSA (Bos taurus, UniProt P02769). The format is binding, bovine. Conditions: BSA band at 278 nm.
For the molecule `[Co+2].[O-]c1ccccc1N=Cc1ccc(N2CCOCC2)cc1.[O-]c1ccccc1N=Cc1ccc(N2CCOCC2)cc1.c1ccc(-c2ccccn2)nc1` [(2)], the “Chromism (% H), hyperchromism” value came to 50.43%.
With `[Ni+2].[O-]c1ccccc1N=Cc1ccc(N2CCOCC2)cc1.[O-]c1ccccc1N=Cc1ccc(N2CCOCC2)cc1.c1ccc(-c2ccccn2)nc1` [(3)], the “Chromism (% H), hyperchromism” value turned out to be 54.61%.
Turning to `[Mn+2].[O-]c1ccccc1N=Cc1ccc(N2CCOCC2)cc1.[O-]c1ccccc1N=Cc1ccc(N2CCOCC2)cc1.c1ccc(-c2ccccn2)nc1` [(1)], the “Chromism (% H), hyperchromism” value is reported as 57.41%.
